From PMC13600255 (Journal of the American Chemical Society, 2025)

Amino acid sequences for entries named in this document (tags omitted).
UniProt P31652, whole entry: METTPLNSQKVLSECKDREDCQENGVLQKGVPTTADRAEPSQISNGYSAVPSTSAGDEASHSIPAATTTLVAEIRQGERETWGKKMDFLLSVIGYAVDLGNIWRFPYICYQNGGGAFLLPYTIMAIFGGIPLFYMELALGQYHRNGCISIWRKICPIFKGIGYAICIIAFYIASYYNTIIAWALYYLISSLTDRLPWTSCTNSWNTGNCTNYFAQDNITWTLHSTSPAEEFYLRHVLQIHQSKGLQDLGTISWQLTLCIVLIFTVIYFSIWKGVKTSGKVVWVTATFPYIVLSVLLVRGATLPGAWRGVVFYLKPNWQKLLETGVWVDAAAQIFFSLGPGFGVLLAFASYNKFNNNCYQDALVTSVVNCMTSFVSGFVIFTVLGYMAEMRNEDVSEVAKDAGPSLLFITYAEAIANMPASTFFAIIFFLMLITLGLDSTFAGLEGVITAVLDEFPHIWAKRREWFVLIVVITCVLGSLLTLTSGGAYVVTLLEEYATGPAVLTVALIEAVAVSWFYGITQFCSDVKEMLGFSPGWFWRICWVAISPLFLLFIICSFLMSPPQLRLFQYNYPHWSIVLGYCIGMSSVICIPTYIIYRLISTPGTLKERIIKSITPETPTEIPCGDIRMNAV

Molecular target: rat SERT (rSERT) (Rattus norvegicus, UniProt P31652)
Assay: [3H]5-HT uptake inhibition in rat brain synaptosomes
Format: biochemical

COC(=O)[C@H]1[C@@H](OC(=O)c2ccccc2)C[C@@H]2CC[C@H]1N2C [cocaine, reference compound]
IC50 (Uptake Inhibition at SERT IC50, [3H]5-HT (rSERT)): 296 nM
IC50 ([3H]5-HT Uptake Inhibition IC50 ± SD, SERT, n = 3): 296 ± 29.5 nM
